In ChEMBL document CHEMBL1136643, “Identification of a novel series of selective 5-HT7 receptor antagonists” (Bioorg Med Chem Lett, 2003):
Only a part of the results on these compounds is given; other tests are left out.

Sequences of proteins named here, by UniProt entry; tags and fusion partners are left off.
UniProt P34969, whole entry: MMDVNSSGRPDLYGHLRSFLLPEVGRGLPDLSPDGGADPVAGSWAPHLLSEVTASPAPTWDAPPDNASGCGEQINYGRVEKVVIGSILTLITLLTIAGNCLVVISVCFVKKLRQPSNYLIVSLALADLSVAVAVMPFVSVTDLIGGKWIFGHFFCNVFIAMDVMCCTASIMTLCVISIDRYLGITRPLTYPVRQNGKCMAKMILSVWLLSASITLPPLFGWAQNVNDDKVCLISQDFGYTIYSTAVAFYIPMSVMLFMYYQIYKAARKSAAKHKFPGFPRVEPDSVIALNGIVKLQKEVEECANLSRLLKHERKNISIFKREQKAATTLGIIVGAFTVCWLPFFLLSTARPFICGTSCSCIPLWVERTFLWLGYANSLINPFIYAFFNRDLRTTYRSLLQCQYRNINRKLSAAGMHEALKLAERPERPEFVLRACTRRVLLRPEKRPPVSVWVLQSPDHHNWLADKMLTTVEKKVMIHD
UniProt P28223, whole entry: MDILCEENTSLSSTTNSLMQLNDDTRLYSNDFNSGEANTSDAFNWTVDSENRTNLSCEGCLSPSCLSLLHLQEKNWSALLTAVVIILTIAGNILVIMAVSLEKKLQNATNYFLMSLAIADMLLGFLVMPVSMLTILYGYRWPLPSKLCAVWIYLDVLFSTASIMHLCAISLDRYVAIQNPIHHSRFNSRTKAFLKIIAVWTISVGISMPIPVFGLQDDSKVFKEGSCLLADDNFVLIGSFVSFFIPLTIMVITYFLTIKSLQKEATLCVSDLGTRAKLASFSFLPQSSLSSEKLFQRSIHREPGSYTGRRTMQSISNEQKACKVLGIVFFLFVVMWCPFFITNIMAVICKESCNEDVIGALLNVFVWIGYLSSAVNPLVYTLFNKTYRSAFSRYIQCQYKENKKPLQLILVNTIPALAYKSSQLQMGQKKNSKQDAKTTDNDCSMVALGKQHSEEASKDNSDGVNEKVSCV

What was measured:
[1] = target: 5-hydroxytryptamine receptor 7 (Homo sapiens, UniProt P34969); assay: Binding affinity at human cloned 5-hydroxytryptamine 7 receptor.
[2] = target: 5-hydroxytryptamine receptor 2A (Homo sapiens, UniProt P28223); assay: Binding affinity at human cloned 5-hydroxytryptamine 2A receptor.

SMILES | Log Ki [1] | Log Ki [2]
O=C1c2ccccc2CCCN1CCN1CCC(N2C(=O)Cc3cc(F)ccc32)CC1 | -8.16 | -7.37
O=C1c2ccccc2CCCN1CCN1CCC(N2C(=O)Cc3ccccc32)CC1 | -7.43 | -6.65
